Data as given in BindingDB's records for PubMed 2547939 (Abbott Laboratories, 1989).

Sequences of proteins named here, by UniProt entry; tags and fusion partners are left off. A change or cut given only in a name is not applied to a line headed by its entry.
UniProt P08482: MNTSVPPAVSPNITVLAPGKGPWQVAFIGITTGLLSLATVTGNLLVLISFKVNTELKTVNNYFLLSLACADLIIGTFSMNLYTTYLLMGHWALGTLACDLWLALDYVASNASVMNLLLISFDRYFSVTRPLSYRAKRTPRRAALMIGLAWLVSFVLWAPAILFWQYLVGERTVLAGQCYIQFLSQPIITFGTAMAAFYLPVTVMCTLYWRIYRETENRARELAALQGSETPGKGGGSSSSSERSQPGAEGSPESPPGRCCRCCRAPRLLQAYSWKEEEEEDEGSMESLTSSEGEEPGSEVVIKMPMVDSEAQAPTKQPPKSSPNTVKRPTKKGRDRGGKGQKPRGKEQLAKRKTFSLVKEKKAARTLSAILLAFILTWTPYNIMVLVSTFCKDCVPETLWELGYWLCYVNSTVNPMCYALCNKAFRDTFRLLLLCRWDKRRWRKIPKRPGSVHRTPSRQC

Target: Muscarinic acetylcholine receptor M1 (Rattus norvegicus, UniProt P08482)

Ki: 34.7 nM
Structure (SMILES): COc1ccccc1CNCCCCCCNCCCCCCCCNCCCCCCNCc1ccccc1OC [METHOCTRAMINE]
